The test system of this test is Oryza sativa. In words: Inhibition of rice DNA polymerase lambda at 100 uM.

The source made the active and inactive calls. No cut-off for these calls is given here.

`COC1=C(C(=O)CC(C)O)C(=O)C(C)(/C=C/C=C/C(C)O)O1` (stereo unspecified): the outcome was inactive.

The values above are taken from ChEMBL document CHEMBL1152764, “Penicilliols A and B, novel inhibitors specific to mammalian Y-family DNA polymerases” (Bioorg Med Chem, 2009).
